Data as given in publication PMC4556714, “Drug Development in Conformational Diseases: A Novel Family of Chemical Chaperones that Bind and Stabilise Several Polymorphic Amyloid Structures” (PLoS ONE, 2015).

The chains behind the UniProt entries cited, without tags or fusion partners. Residues count along the entry.
UniProt P02769, 25-607: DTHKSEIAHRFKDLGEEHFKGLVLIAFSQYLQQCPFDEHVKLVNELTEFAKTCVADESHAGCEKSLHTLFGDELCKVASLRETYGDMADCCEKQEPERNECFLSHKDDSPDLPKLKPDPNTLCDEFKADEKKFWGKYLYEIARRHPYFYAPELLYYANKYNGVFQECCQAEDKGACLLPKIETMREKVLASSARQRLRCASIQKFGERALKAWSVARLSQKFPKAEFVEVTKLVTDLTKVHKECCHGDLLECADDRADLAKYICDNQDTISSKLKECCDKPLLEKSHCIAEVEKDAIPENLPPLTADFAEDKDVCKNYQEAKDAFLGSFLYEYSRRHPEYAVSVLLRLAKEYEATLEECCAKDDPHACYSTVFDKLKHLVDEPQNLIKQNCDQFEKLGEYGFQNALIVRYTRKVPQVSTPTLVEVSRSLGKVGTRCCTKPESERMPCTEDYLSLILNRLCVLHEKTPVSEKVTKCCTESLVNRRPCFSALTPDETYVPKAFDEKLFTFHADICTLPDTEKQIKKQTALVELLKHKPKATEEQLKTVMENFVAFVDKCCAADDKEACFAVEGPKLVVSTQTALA

Target: T1, Bovine serum albumin (BSA, fraction V) (Bos taurus, UniProt P02769)
T1 construct: gene ALB; mature native serum albumin, 585 residues, fraction V from Roche; heat/acid-induced amyloid aggregation
Assay: ThT fluorescence, inhibition of BSA amyloid aggregation
Type: biochemical
Settings: BSA 300 μmol/L, 42°C per IC50 methods (65°C in kinetic assay), glycine buffer pH 3, NaCl 100 mM

- IC50: 9.21 µM
Substance: (2R)-2-(6-methoxy-2-naphthyl)propanoic acid
